Patent US8003630B2, “Combinatorial therapies for the treatment of neoplasias using the opioid growth factor receptor” (The Penn State Research Foundation, priority 2004, dated 2011)

Columns and labels:
SCC-1 cells [1] = assay: Apoptosis, caspase-3 activity by flow cytometry in SCC-1 cells; assay type: cell-based, human
Description: Caspase-3-FITC positive staining was used to characterize early stages of apoptosis (29). SCC-1 cells were seeded into 6-well plates and treated with drugs beginning 24 hr later; drugs and media were replaced daily. Cells were harvested after 1, 3 and 6 days of drug treatment, and prepared according to manufacturer's recommendations for FACS analysis (FACS cell sorter with a 15 mW argon ion laser at 488 nm; Becton, Dickinson and Company, Franklin Lakes, N.J.). For caspase-3 identification, the APO-ACTIVE 3 antibody detection kit (Cell Technology, Mountain View, Calif.) was used. Three samples from each treatment were analyzed at each time point. The percent gated cells recorded by flow cytometry was considered caspase positive.

MiaPaCa-2 cells = assay: Gemcitabine growth curve, actual cell counts; assay type: cell-based, human; details: MiaPaCa-2 cell counts, gemcitabine 10^−7 M or OGF 10^−6 M alone
MIA PaCa-2 cells = assay: Growth assays of MIA PaCa-2 cells (MTS assay or cell counting), Example 7; assay type: cell-based, human; details: for decrease in cell number relative to controls: OGF 10^−6 M and/or gemcitabine 10^−8 M
Description: MIA PaCa-2 and PANC-1 human pancreatic adenocarcinoma cell lines were purchased from the American Type Culture Collection (Manasass, Va.). MIA PaCa-2 cells were derived from an undifferentiated epithelial carcinoma occurring in the body and tail of the pancreas in a person. The PANC-1 cells were derived from an undifferentiated carcinoma from the head of the pancreas in a person. MIA PaCa-2 and PANC-1 cells were grown in Dulbecco's MEM (modified) media; media was supplemented with 10% fetal calf serum, 1.2% sodium bicarbonate, and antibiotics (5,000 Units/ml penicillin, 5 mg/ml streptomycin, 10 mg/ml neomycin), and the cells were maintained in a humidified atmosphere of 7% CO2/93% air at 37° C.
MIA PaCa-2 cells were seeded at equivalent amounts into either 75 cm^2 flasks, 6-well plates, or 96-well plates (Falcon) and counted 24 hr later to determine plating efficiency. Growth assays for PANC-1 cells were conducted in 6-well plates (Falcon). Compounds or sterile water were added beginning 24 hr after seeding (=0 hr), and both media and compounds were replaced daily. All drugs were prepared in sterile water and dilutions represent final concentrations of the compounds.
Cell viability was determined by trypan blue staining. At least two aliquots per flask or 4-10 wells/treatment were counted at each time.

OGFr = target: T1, OGFr (Homo sapiens, UniProt Q9NZT2); assay: Receptor binding analysis of OGFr in SCC-1 tumors from treated mice
T1 construct: Tumor tissues from some mice in each treatment group were removed at the time of death; from tissue; host or cells: SCC-1 squamous cell carcinoma xenograft tumors grown subcutaneously in nude mice
T1 sequence (Q9NZT2 1-677): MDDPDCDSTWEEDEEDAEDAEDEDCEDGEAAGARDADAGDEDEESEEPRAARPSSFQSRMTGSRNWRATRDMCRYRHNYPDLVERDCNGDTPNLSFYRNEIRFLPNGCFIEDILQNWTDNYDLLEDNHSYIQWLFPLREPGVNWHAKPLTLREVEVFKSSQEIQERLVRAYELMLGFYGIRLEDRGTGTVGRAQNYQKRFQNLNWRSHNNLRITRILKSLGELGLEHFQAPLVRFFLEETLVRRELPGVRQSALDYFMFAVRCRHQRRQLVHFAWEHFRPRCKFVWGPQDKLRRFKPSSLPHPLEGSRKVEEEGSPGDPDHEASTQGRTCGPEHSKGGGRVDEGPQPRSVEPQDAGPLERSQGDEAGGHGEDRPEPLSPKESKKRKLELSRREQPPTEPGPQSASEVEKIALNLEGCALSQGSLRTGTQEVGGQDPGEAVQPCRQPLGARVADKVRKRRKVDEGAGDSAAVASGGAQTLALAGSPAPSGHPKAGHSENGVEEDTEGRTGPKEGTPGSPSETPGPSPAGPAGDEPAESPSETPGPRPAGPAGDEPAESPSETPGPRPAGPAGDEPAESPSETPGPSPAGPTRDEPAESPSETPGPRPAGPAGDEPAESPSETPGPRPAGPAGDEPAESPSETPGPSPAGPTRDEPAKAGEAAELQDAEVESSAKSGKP
Description: Tumor tissues from some mice in each treatment group were removed at the time of death, washed free of blood and connective tissue, and immediately frozen in liquid nitrogen. Tissues were assayed following the procedures published previously [ 16]. Saturation binding isotherms were generated using GraphPad Prism software; binding affinity (Kd) and capacity (Bmax) values were provided by the computer software.

SCC-1 cells [2] = assay: Growth curves of SCC-1 cells, cell proliferation (MTT) assay, absorbency; details: carboplatin 10^−6 M and/or OGF 10^−6 M
SCC-1 cells [3] = assay: DNA synthesis, BrdU incorporation into SCC-1 cells; assay type: cell-based, human; details: treatment for 24 hours

## [Met^5]-enkephalin [OGF]
SCC-1 cells [1]; 3 days
  caspase positive cells, fold more than in control cultures: No change from control levels
SCC-1 cells [1]; 6 days
  caspase reactive cells, fold more than in control cultures: No change from control levels
MiaPaCa-2 cells; 48 h
  decrease in cell number relative to controls: 15.5%
MiaPaCa-2 cells; 72 h
  decrease in cell number relative to controls: 17.6%
MiaPaCa-2 cells; 96 h
  decrease in cell number relative to controls: 16.7%
MIA PaCa-2 cells; 48 hr
  decrease in cell number relative to controls: 16%
MIA PaCa-2 cells; 72 hr
  decrease in cell number relative to controls: 18%
MIA PaCa-2 cells; 96 hr
  decrease in cell number relative to controls: 17%
MIA PaCa-2 cells; opioids 10^−6 M daily, 96 hr
  inhibition of cell number relative to controls: 16%
OGFr
  binding capacity (Bmax) relative to control subjects: ~2 fold
SCC-1 cells [2]; 48 h
  decrease in cell number relative to controls: 8.2%
SCC-1 cells [2]; 72 h
  decrease in cell number relative to controls: 8.4%
SCC-1 cells [2]; 96 h
  decrease in cell number relative to controls: 9.7%
SCC-1 cells [3]
  decrease in the number of BrdU positive cells relative to controls: 31%
